A short description of data set [1]: In vivo brain uptake and retention in mice. The conditions noted are these: for 2:30 min ratio / 2 min (% ID/g) / 30 min (% ID/g): Table 1 lower part; for 2 min (% ID/g): brain uptake at 2 min; for 30 min (% ID/g): brain uptake at 30 min.
The nature of data set [2]: Partitioning between octanol and phosphate-buffered saline (logP). The settings on record: Table 1, upper part; value marked (est.).

Structures are written as SMILES.

With `[11CH3]Nc1ccc(-c2nc3ccccc3s2)cc1I`, in data set [1], the “2:30 min ratio” value is on record as 1.6, the “2 min (% ID/g)” value came out at 4.40 % ID/g and the “30 min (% ID/g)” value came out at 2.68 % ID/g.

In the case of `[11CH3]Oc1ccc2nc(-c3ccc(N)cc3)sc2c1`, the “logP (est.)” value in data set [2] is recorded as 1.9 (est.). The “Mouse Brain Uptake @ 2 min” value in data set [1] (2 min, 11C-labeled compound) came out at 0.60 ± 0.04 % ID/g * kg. Besides, in data set [1] (30 min, 11C-labeled compound), the “Mouse Brain Uptake @ 30 min” value is 0.39 ± 0.05 % ID/g * kg. The “Ratio of 2 min/30 min Uptake Values” in data set [1] (mouse brain) was determined as 1.5.

On to `[11CH3]Nc1ccc(-c2nc3ccc(O)cc3s2)cc1I`, for which, in data set [1], the “2:30 min ratio” value turned out to be 2.91, the “2 min (% ID/g)” value came to 7.76 % ID/g and the “30 min (% ID/g)” value was 2.66 % ID/g.

The values above are taken from patent US10137210B2, “Thioflavin derivatives for use in antemortem diagnosis of Alzheimer's disease and in vivo imaging and prevention of amyloid deposition” (UNIVERSITY OF PITTSBURGH—OF THE COMMONWEALTH SYSTEM OF …, priority 2000, dated 2018).
